{
  "source": "patent US9006170B2",
  "about": "“Compositions for elastogenesis and connective tissue treatment” (Human Matrix Sciences, LLC, priority 2004, dated 2015)",
  "tested_on": "normal human skin fibroblasts",
  "conditions": "higher concentrations of iron (100 and 200 μM)",
  "procedure": "Assessment of Cell Proliferation. Normal human skin fibroblasts were suspended in DMEM containing 10% FBS and plated in 35 mm culture dishes (100,000 cells/dish) in quadruplicates. […] These cultures were then washed in PBS and treated with cold 5% trichloroacetic acid twice for 10 minutes at 4° C. For 30 minutes, 0.5 ml of 0.3 N NaOH was added to all dishes, and 200 μl aliquots of each culture were mixed with scintillation fluid and counted.",
  "data": [
    {"substance": "ferric ammonium citrate [FAC]", "values": [
      {"measurement": "cellular cytotoxicity", "result": "not due to cellular cytotoxicity"}
    ]}
  ]
}
